# Measured values from patent publication US20100267637A1, “TREATMENT OF MELANOMA WITH ALPHA THYMOSIN PEPTIDES IN COMBINATION WITH A KINASE INHIBITOR” (SciClone Pharmaceuticals, Inc., priority 2007, published 2010).
# System: murine B16 melanoma cells
# Experiment: Anti-tumor effect: tumor size / tumor volume in mice bearing subcutaneous B16 melanoma
# Format: in vivo, C57BL/6 mice
# Details: for Tumor volume: Day 12; for Tumor volumes on Day 15: Length × Width × Width/2
# Experimental: The toxic effects of the dosing regimens were also monitored. […] Meanwhile 9H10 was given in two groups via i.p. on Day 3, 6 and 9. […] Tumor volume and body weight were measured every three days, and tumor weights were measured on Day 16 at the end of the study.
# As per aseptic tissue culture procedures, one vial of B16 melanoma cells was removed from the liquid nitrogen stock, and placed into a 37° C. water bath. Gentle swirling was conducted until the content of the vial was thawed. Using tissue culture/sterile procedures, the cells were immediately centrifuged with a TD5A-WS centrifuge at 1000 rpm, 20-25° C., 5 min. After centrifugation, the cells were suspended in 0.1 to 0.5 mL normal saline (NS) and subcutaneously injected into 10 mice (0.1 mL/mouse, about 1×10^6 cells). After 7-10 days, when the tumor diameter was approximately 1 cm, the animals were euthanized with CO2 overdose and the tumors excised. The procedure was repeated with 20 mice to generate a sufficient number of B16 melanoma cells with adequate transplantability.
# On the day of tumor implantation, approximately 1×10^6 cells in 0.1 mL were subcutaneously injected on the right axillary area of each mouse. The day of tumor implantation was defined as Day 0.
# On Day 3, the animals were randomly assigned into nine different weight-matched and tumor-size-matched groups. Dosing was started on Day 3 using the regimen according to Table 2.
# From Day 1 to Day 15, mortality and moribundity were checked twice daily, the body weights were recorded once every 3 days, and tumors were measured using a caliper once every 3 days. At the end of the study (Day 16), the animals were euthanized by CO2 asphyxiation, and the tumors were excised and weighed.
# Based on the tumor size, the tumor volume (TV) was calculated with the formula: [TV=(Length×Width×Width)/2]. And the percent inhibition (PI) of TV (PITV) was calculated according to the equation below:
# PITV(%)=(TV vehicle−TVdrug treated)/TV vehicle×100
# Inter-group comparison was performed in terms of tumor volume, tumor weight and body weight, using a student's t test. P values of less than 0.05 were considered to be statistically significant.
smiles,measurement,setting,value
CNC(=O)c1cc(Oc2ccc(NC(=O)Nc3ccc(Cl)c(C(F)(F)F)c3)cc2)ccn1 [Sorafenib],Tumor volume,animal F1,0.0135 cm^3
same,Tumor volume,animal F3,0.0135 cm^3
same,Tumor volume,animal F4,0.0135 cm^3
same,Tumor volume,animal F5,0.0135 cm^3
same,Tumor volume,animal M2,0.0135 cm^3
same,Tumor volume,animal M5,0.0135 cm^3
same,Tumor volumes on Day 15,animal F1,0.1080 cm^3
same,Tumor volumes on Day 15,animal F3,0.1080 cm^3
same,Tumor volumes on Day 15,animal M4,0.0135 cm^3
